Measurements taken from ChEMBL document CHEMBL3639007, “Cyclohexyl amide derivatives as CRF receptor antagonists” (2014).

Each compound was assayed against T1, Corticotropin-releasing factor receptor 1 (Homo sapiens, UniProt P34998) (assay: (§1) Homogeneous Time-Resolved Fluorescence Assay: Chinese hamster ovary (CHO) cells expressing either the human or rat recombinant CRF-1 or human CRF-2alpha (Chen et al, Proc Natl Acad Sci USA 90, 8967-8971, 1993; Liaw et al, Endocrinology 137, 72-77, 1996) are propagated in Dulbecco's modified Eagle medium supplemented with 10% foetal calf serum, non-essential amino acids, 100 U/ml penicillin, 100 mg/l streptomycin and 1 g/l geneticin. CHO cells expressing the rat CRF-2beta receptor (Wu et al, Endocrinology 148, 1675-1687, 2007) are propagated in HAM's-F12 Glutamax supplemented with 10% foetal calf serum, 100 IU/ml penicillin, 100 mg/l streptomycin, 600 ug/ml hygromycin, 10 ug/ml blasticidin and induced with 1 ug/ml of tetracyclin for 24 hours prior to experimentation. For cyclic AMP determinations the Homogeneous Time-Resolved Fluoresce (HTRF) CAMP dynamic 2 kit (Cisbio International, France) was used as per manufacturers' instructions.).
T1 sequence (P34998 whole entry): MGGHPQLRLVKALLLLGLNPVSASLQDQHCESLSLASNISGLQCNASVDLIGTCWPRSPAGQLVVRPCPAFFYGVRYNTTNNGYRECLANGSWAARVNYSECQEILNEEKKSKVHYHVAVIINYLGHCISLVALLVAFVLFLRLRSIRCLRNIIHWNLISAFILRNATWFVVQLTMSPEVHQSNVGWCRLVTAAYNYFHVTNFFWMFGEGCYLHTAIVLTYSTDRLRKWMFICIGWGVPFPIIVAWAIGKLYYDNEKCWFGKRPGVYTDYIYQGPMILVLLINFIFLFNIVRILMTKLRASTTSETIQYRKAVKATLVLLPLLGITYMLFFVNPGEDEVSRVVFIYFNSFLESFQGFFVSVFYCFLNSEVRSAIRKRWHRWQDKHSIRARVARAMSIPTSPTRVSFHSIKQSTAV
Assay type: cell-based

Going from `Cc1cc(C(C)C)n(C[C@H]2CC[C@H](NC(=O)c3cc(Cl)cnc3C)CC2)n1` to `Cc1ncc(Cl)cc1C(=O)N[C@H]1CC[C@@H](Cn2nc(-c3ccccc3)cc2C)CC1`, the IC50 rises from 40 nM to 131 nM (3.3-fold). The first is the more potent here.

First: O=C(O)Cc1ccc(NC[C@H]2CC[C@@H](NC(=O)c3cc(C(F)(F)F)ccc3Cl)CC2)cc1
Second: Cc1cnn(C[C@H]2CC[C@H](NC(=O)c3cc(C(F)(F)F)ccc3Cl)CC2)c1C
The IC50 of the first is 4.4-fold higher: 948 nM for the first, 214 nM for the second. The second is the more potent here.

`O=C(N[C@H]1CC[C@H](Cn2cc3c(n2)CCC3)CC1)c1cc(C(F)(F)F)ccc1Cl` and `COc1cc(C)n(C[C@H]2CC[C@H](NC(=O)c3cc(C(F)(F)F)ccc3Cl)CC2)n1` are within 1.5-fold of each other in IC50: 147 nM for the first, 126 nM for the second.

First: CCc1cc(C)n(C[C@H]2CC[C@H](NC(=O)c3cc(C(F)(F)F)ccc3Cl)CC2)n1
Second: CCc1nn(C[C@H]2CC[C@H](NC(=O)c3cc(C(F)(F)F)ccc3Cl)CC2)c(C)c1Cl
The IC50 of the first is 3.8-fold lower: 13 nM for the first, 49 nM for the second. The first is the more potent here.

What follows are compounds tested against T2, Corticotropin-releasing factor receptor 2 (Homo sapiens, UniProt Q13324) (assay: as §1).
T2 sequence (Q13324 whole entry): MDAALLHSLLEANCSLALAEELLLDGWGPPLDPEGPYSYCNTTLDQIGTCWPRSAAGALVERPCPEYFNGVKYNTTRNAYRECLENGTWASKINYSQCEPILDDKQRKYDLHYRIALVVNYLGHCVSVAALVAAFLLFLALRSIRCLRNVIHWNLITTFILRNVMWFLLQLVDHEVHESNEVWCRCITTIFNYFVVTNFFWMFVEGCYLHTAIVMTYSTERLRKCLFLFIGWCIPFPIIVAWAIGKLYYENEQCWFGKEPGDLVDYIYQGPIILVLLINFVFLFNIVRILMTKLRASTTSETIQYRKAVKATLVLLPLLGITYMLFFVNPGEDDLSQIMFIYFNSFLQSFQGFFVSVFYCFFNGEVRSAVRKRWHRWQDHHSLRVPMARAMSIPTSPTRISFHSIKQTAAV
Assay type: cell-based

`COc1ccc(-c2c(NC[C@H]3CC[C@H](NC(=O)c4cc(C(F)(F)F)ccc4Cl)CC3)n[nH]c2C)c(Cl)c1` was tested, and the IC50 was 727 nM.
